In US6534482B1, “Expression vectors for stimulating an immune response and methods of using the same” (priority 1998, dated 2003):

Test system: CTL response
Set-up: species or system HLA-A2.1/K^b-H-2^bxs transgenic mice
Details: mouse; for Immunogenicity In Vivo (IFA): No. CTL-Positive Cultures: sc

CC(C)C[C@H](NC(=O)[C@@H](NC(=O)[C@@H](NC(=O)[C@H](CS)NC(=O)[C@H](CC(C)C)NC(=O)[C@@H]1CCCN1C(=O)[C@@H](NC(=O)[C@H](CC(C)C)NC(=O)[C@@H](N)CCCCN)[C@@H](C)O)C(C)C)[C@@H](C)O)C(=O)O [HIV Env 120]
Immunogenicity In Vivo (IFA): CTL Response (Geo. Mean ΔLU): 6.4 (1.3) ΔLU | Immunogenicity In Vivo (IFA): No. CTL-Positive Cultures: 2/5

FLPSDFFPSV [HBV Core 18]
Immunogenicity In Vivo (IFA): CTL Response (Geo. Mean ΔLU): 73.0 (1.1) ΔLU | Immunogenicity In Vivo (IFA): No. CTL-Positive Cultures: 6/6
